Measured values: EP4821930A1, “SUBSTITUTED POLYCYCLIC COMPOUND” (dated 2026)

Protein sequences, listed by entry. Tags and fused reporters are not part of them. Chains listed by the source or under a name are the forms on record and can include a tag or linker.
UniProt O00255, with tags, fused parts or gaps: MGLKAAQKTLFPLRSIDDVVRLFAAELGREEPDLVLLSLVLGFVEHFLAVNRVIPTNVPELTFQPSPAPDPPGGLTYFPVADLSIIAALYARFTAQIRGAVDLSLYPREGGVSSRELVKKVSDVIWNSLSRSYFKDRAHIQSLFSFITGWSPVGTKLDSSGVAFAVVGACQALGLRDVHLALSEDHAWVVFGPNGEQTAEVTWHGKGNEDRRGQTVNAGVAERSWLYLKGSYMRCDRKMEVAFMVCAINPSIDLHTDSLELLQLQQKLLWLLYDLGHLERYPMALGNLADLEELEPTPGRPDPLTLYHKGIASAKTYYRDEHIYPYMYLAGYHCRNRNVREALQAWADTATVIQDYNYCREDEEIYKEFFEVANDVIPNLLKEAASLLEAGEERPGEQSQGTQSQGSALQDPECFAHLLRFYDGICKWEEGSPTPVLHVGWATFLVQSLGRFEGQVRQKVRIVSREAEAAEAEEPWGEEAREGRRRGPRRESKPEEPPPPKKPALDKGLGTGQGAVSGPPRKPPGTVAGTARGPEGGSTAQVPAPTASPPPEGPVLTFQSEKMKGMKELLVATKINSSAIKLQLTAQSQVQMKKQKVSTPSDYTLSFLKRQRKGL
UniProt O00255, with tags, fused parts or gaps M327I: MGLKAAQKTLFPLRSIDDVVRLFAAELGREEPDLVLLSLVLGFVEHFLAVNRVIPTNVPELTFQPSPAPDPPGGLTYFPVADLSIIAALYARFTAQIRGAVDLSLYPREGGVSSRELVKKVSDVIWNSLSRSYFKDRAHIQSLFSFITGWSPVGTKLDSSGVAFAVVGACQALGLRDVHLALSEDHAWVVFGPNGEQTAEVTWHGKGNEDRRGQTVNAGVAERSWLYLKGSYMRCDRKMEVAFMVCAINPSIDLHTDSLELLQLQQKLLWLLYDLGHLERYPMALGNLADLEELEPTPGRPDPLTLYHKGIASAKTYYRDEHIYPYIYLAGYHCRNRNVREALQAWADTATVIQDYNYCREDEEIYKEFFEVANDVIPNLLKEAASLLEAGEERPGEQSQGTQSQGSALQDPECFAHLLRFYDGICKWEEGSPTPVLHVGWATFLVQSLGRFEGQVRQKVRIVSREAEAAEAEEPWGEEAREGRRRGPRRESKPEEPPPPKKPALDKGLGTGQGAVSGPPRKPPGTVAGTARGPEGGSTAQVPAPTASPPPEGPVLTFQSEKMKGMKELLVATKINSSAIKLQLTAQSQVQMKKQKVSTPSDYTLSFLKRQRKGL

Experiments:
[1] = tested on: Menin^M327I/MOLM13 cells; assay: Menin^M327I/MOLM13 cell proliferation inhibition (CellTiter-Glo); conditions: read-out: IC50 (nM) Menin^M327I/MOLM13, 7 days incubation
Description: The Menin^M327I DNA sequence was inserted into the lentiviral vector pCDHL-CMV-3xFlag-puroR via restriction enzyme digestion and ligation. The construct was co-transfected with psPAX2/pMD2G into 293T cells. After 48 hours, the virus was harvested and used to infect MOLM13 cells. Pool and monoclonal selections were performed using puromycin to ultimately obtain a stable cell line stably expressing the Menin^M327I recombinant protein.
MOLM13 cells are human acute myeloid leukemia cells that contain the MLL-AF9 fusion protein. In this experiment, different concentrations of compounds will be incubated with Menin^M327I/MOLM13 cells for 7 days, and viable cells will be detected using Promega's CellTiter-Glo assay.
MOLM13 cells were cultured in RPMI-1640 medium supplemented with 20% fetal bovine serum. One day prior to compound addition, cells were seeded into 96-well cell culture plates at 500 cells per well in a volume of 195 µL per well. Compounds were dissolved in DMSO to a final concentration of 10 mM. The 10 mM compound stock was then serially diluted 3-fold in DMSO to obtain 10 concentrations. For each concentration, 2 µL was taken and added to 48 µL of RPMI-1640 medium for a 25-fold dilution, and then added as a 40× compound to the prepared cell suspension. After co-incubation in the incubator for 7 days, 35 µL of Cell-Titer Glo was added, and the mixture was allowed to stand at room temperature for 10 minutes. Fluorescence signals were read on a CLARIO starPlus instrument, and finally the IC50 value for cell proliferation inhibition was calculated using GraphPad Prism 5.0.

[2] = Pharmacokinetic study in SD rats; conditions: male SD rats, oral, 10 mg/kg, 0.5% MC + 0.1% SDS
Description: Male SD rats were obtained from Beijing Vital River Laboratory Animal Technology Co., Ltd. The rats were divided into groups of three animals each, and the test sample suspension (10 mg/kg, formulated in 0.5% MC + 0.1% SDS) was administered orally by gavage. The animals were fasted overnight prior to the experiment, with food withheld from 10 hours before dosing until 4 hours after dosing. Blood samples were collected at 0.25, 0.5, 1, 2, 4, 6, 8, and 24 hours after dosing. Following anesthesia with isoflurane using a small animal anesthesia machine, 0.3 mL of whole blood was collected from the retro-orbital venous plexus into heparin anticoagulant tubes. The samples were centrifuged at 4000 rpm for 5 minutes at 4°C, and the plasma was transferred to centrifuge tubes and stored at -80 °C until analysis. Plasma samples were extracted using the protein precipitation method, and the extracts were analyzed by LC/MS. Table 3. Pharmacokinetic parameters of the example compounds.

[3] = target: Wild-type Menin-MLL (Homo sapiens, UniProt O00255); assay: Fluorescence polarization binding assay (FP assay), inhibition of wild-type Menin-MLL binding; conditions: read-out: IC50 (nM) Menin^wt, 5 nM Menin, 2 nM FITC-MLL (4-43), 23 °C, 1 hour
Description: Wild-type Menin binds with high affinity to the conserved N-terminal sequence of MLL. Compounds bind to Menin by competing with the MLL N-terminus. FITC-MLL (4-43) (synthesized by GenScript) contains the conserved sequence responsible for MLL binding to Menin. We established a method to detect the binding activity between Menin and MLL using a fluorescence polarization binding assay (FP assay), which was then used to evaluate the inhibitory activity of compounds. The specific procedure is as follows: Compounds were serially diluted 5-fold in 100% DMSO starting from 1 mM (8 concentrations in total). For each concentration, 2 µL was added to 48 µL of reaction buffer (50 mM NaCl, 50 mM Tris (pH 7.5), 0.05% Tween-20, 1 mM DTT) and mixed thoroughly to obtain 4× compound solutions (reaching final assay concentrations of 10000, 2000, 400, 80, 16, 3.2, 0.64, 0 nM) for later use. Use reaction buffer to prepare 2× Menin to a final assay concentration of 5 nM, and 4× FITC-MLL (4-43) to a final assay concentration of 2 nM. Add 5 µL of the 4× compound solution to a 384-well plate (OptiPlate-384, purchased from PerkinElmer). Then add 10 µL of the 2× Menin solution and centrifuge. After that, add 5 µL of FITC-MLL (4-43) and centrifuge again to initiate the reaction. Incubate at 23 °C for 1 hour protected from light. After the reaction, the signal was read on an EnVision 2104 Multilabel Reader (purchased from PerkinElmer) at an excitation wavelength of 480 nm and an emission wavelength of 535 nm. The data were analyzed using GraphPad Prism (data analysis software) to obtain the IC50 values of the compounds.

[4] = tested on: MV-4-11 cells expressing wild-type Menin protein; assay: MV-4-11 cell proliferation inhibition (CellTiter-Blue); conditions: read-out: IC50 (nM) MV-4-11, 72 hours incubation
Description: MV-4-11 cells are human acute myeloid leukemia cells that contain the MLL-AF4 fusion protein. In this experiment, after incubating different concentrations of the compounds with MV-4-11 cells, the CellTiter-Blue® detection reagent from Promega was used to establish a screening method for the inhibition of MV-4-11 cell proliferation.
MV-4-11 cells were cultured in RPMI-1640 medium (Biological Industries, Cat. No. 01-100-1ACS) supplemented with 10% fetal bovine serum (Biological Industries, Cat. No. 04-001-1ACS), under conditions of 37°C and 5% CO2. The cells were subcultured 2 - 3 times per week. Cells were seeded into 96-well cell culture plates (Corning®) at 5,000 cells per well in 195 µL/well and incubated at 37°C with 5% CO2. After 24 hours, compounds were serially diluted 3-fold in 100% DMSO starting from 10 mM (10 concentrations in total). Then, 4 µL of each compound concentration was added to 96 µL of RPMI-1640 medium and mixed well. Subsequently, 5 µL of the diluted compound from each concentration was added to the prepared cell suspension, and the compounds were co-incubated with the cells in a cell culture incubator for 72 hours (3 days). Then, 35 µL of CellTiter-Blue reagent (Promega, Cat. No. G8082) was added, and the reaction was incubated at 37°C with 5% CO2 for 4 hours. Fluorescence values were read on a BMG Clariostar Microplate Reader, and the data were processed using GraphPad Prism software to calculate the IC50 value of the compound for cell proliferation inhibition.

[5] = target: Menin^M327I (Homo sapiens, UniProt O00255, M322I); assay: Fluorescence polarization binding assay (FP assay), inhibition of mutant Menin-MLL binding; conditions: read-out: IC50 (nM) Menin^M327I, 5 nM Menin^mut, 2 nM FITC-MLL (4-43), 23 °C, 1 hour
Description: The Menin^mut DNA sequence was cloned into the pET28a vector via restriction enzyme digestion and ligation. The recombinant protein was expressed using the BL21 E. coli system and purified by Ni-NTA to obtain Menin^mut. Menin binds with high affinity to the conserved N-terminal sequence of MLL, and compounds bind to Menin by competing with the MLL N-terminus. FITC-MLL (4-43) (synthesized by GenScript) contains the conserved sequence responsible for MLL binding to Menin. We employed a fluorescence polarization binding assay (FP assay) based on the principle that the binding of FITC-MLL (4-43) to Menin^mut increases the molecular weight and enhances fluorescence, to evaluate the inhibitory effect of compounds on the binding between Menin^mut and MLL. The detailed procedure is as follows: Compounds were dissolved in DMSO to a final concentration of 10 mM. The 10 mM compound solution was then diluted 10-fold with DMSO, followed by 5-fold serial dilutions to obtain a total of 8 concentrations. For each concentration, 2 µL was added to 48 µL of reaction buffer (50 mM NaCl, 50 mM Tris, pH 7.5, 0.05% Tween-20, 1 mM DTT) and mixed thoroughly to obtain 4× compound solutions (reaching final assay concentrations of 10000, 2000, 400, 80, 16, 3.2, 0.64, 0 nM) for later use. Use reaction buffer to prepare 2× Menin^mut to a final assay concentration of 5 nM, and 4× FITC-MLL (4-43) to a final assay concentration of 2 nM. Add 5 µL of the 4× compound solution to a 384-well plate (OptiPlate-384, purchased from PerkinElmer). Then add 10 µL of the 2× Meninmut solution and centrifuge. After that, add 5 µL of FITC-MLL (4-43) and briefly centrifuge to initiate the reaction. Incubate at 23 °C for 1 hour protected from light. After the reaction, the signal was read on an EnVision 2104 Multilabel Reader (purchased from PerkinElmer) at an excitation wavelength of 480 nm and an emission wavelength of 535 nm. For each compound, the inhibitory effect was determined at 8 concentrations. The data were processed using GraphPad Prism software to calculate the half-maximal inhibitory concentration (IC50) of the compound for Menin-MLL binding.

| SMILES | IC50 [1] | AUC0-inf [2] | Cmax [2] | T1/2 [2] | Tmax [2] | IC50 [3] | IC50 [4] | IC50 [5] |
| --- | --- | --- | --- | --- | --- | --- | --- | --- |
| CCN(C(=O)c1cc(F)ccc1-n1c2c(c3c(Cl)cncc31)CC1(CC2)CN([C@H](CCCN(C)CCOC)C(C)C)C1)C(C)C | 11.5 nM | 593 ng·h/mL | 43.3 ng/mL | 11.7 h | 6.00 h | 1.9 nM | 2.1 nM | 2.5 nM |
| CCN(C(=O)c1cc(F)ccc1-n1c2c(c3c(C)cncc31)CC1(CC2)CCN(C(CCCN(C)CCOC)C(C)C)CC1)C(C)C (stereo not drawn) | 12.4 nM |  |  |  |  | 8.1 nM | 3.8 nM | 6.8 nM |
| CCN(C(=O)c1cc(F)ccc1-n1c2c(c3c(C)cncc31)CC1(CC2)CN([C@H](CCCN(C)CCOC)C(C)C)C1)C(C)C | 11.8 nM | 794 ng·h/mL | 170 ng/mL | 14.3 h | 2.00 h | 3.4 nM | 2.6 nM | 1.9 nM |
| CCN(C(=O)c1cc(F)ccc1-n1c2c(c3c(Cl)cncc31)CC1(CC2)CN(C(CCCN(C)CCOC)C(C)C)C1)C(C)C (racemic) | 26.1 nM | 598 ng·h/mL | 53.5 ng/mL | 15.2 h | 4.08 h | 6.2 nM | 6.5 nM | 3.1 nM |
| CCN(C(=O)c1cc(F)ccc1-n1c2c(c3c(Cl)cncc31)CC1(CC2)CN([C@@H](CCCN(C)CCOC)C(C)C)C1)C(C)C |  |  |  |  |  | 10.7 nM |  | 19.9 nM |
| CCN(C(=O)c1cc(F)ccc1-n1c2c(c3c(C)cncc31)CC1(CC2)CN(C(CCCN(C)CCOC)C(C)C)C1)C(C)C (racemic) | 39 nM | 956 ng·h/mL | 166 ng/mL | 9.16 h | 2.67 h | 8 nM | 6.4 nM | 3.8 nM |
| CCN(C(=O)c1cc(F)ccc1-n1c2c(c3c(Cl)cncc31)CC1(C2)CN(C(CCCN(C)CCOC)C(C)C)C1)C(C)C (stereo not drawn) | 24.2 nM |  |  |  |  | 8.1 nM | 5.8 nM | 6.1 nM |
| CCN(C(=O)c1cc(F)ccc1-n1c2c(c3c(C)cncc31)CC1(C2)CN([C@@H](CCCN(C)CCOC)C(C)C)C1)C(C)C |  |  |  |  |  | 8.1 nM |  | 4.5 nM |
| COCCN(C)CCCC(C(C)C)N1CC2(CCc3c(c4c(C)cncc4n3-c3ccc(F)cc3C(=O)N(C(C)C)C(C)C)C2)C1 (stereo not drawn) | 16.3 nM |  |  |  |  | 8.5 nM | 5.2 nM | 2.8 nM |
| COCCN(C)CCCC(C(C)C)N1CC2(Cc3c(n(-c4ccc(F)cc4C(=O)N(C(C)C)C(C)C)c4cncc(C)c34)C2)C1 (stereo not drawn) |  |  |  |  |  | 28 nM |  | 11.4 nM |
| CCN(C(=O)c1cc(F)ccc1-n1c2c(c3c(C)cncc31)CC1(CCN(C(CCCN(C)CCOC)C(C)C)CC1)C2)C(C)C (stereo not drawn) | 8.2 nM |  |  |  |  | 5.6 nM | 1.8 nM | 4.6 nM |
| CCN(C(=O)c1cc(F)ccc1-n1c2c(c3c(F)cncc31)CC1(CC2)CN(C(CCCN(C)CCOC)C(C)C)C1)C(C)C (stereo not drawn) | 29.2 nM |  |  |  |  | 10 nM | 8.2 nM | 7.4 nM |
| CCN(C(=O)c1cc(F)ccc1-n1cc(C2CCN(C(CCCN(C)CCOC)C(C)C)CC2)c2ccncc21)C(C)C (stereo not drawn) | 7.2 nM |  |  |  |  | 10.4 nM | 1.8 nM | 6 nM |
| CCN(C(=O)c1cc(F)ccc1-n1c2c(c3c(C)cncc31)OC1(C2)CN(C(CCCN(C)CCOC)C(C)C)C1)C(C)C (stereo not drawn) |  | 1491 ng·h/mL | 101 ng/mL | 9.09 h | 5.33 h |  |  |  |
| COCCN(C)CCCC(C(C)C)N1CCC2(CCc3c(c4c(C)cncc4n3-c3ccc(F)cc3C(=O)N(C(C)C)C(C)C)C2)C1 (stereo not drawn) | 10 nM |  |  |  |  | 10.9 nM | 3.5 nM | 3.7 nM |
| CCN(C(=O)c1cc(F)ccc1-n1c2c(c3c(C)cncc31)CC1(CC2)CCN(C(CCCN(C)CCOC)C(C)C)C1)C(C)C (stereo not drawn) | 6.5 nM |  |  |  |  | 11.2 nM | 1.9 nM | 3.3 nM |
| CCN(C(=O)c1cc(F)ccc1-n1c2c(c3c(C)cncc31)CC1(C2)CN([C@H](CCCN(C)CCOC)C(C)C)C1)C(C)C | 18.2 nM |  |  |  |  | 4 nM | 7.4 nM | 2.9 nM |
